Patent US20140106440A1, “ENHANCED ENZYMATIC CO2 CAPTURE TECHNIQUES ACCORDING TO SOLUTION PKA, TEMPERATURE AND/OR ENZYME CHARACTER” (CO2 SOLUTIONS INC., priority 2011, published 2014)
“And” between values parts separate entries of the source, which are not always exact repeats. Equal values may be shown once. Read-outs that look alike come from different tables or passages of the source.

Test system: thermostable variant of hCA II ('5X' mutant, M5X)
[1] = linear regression method, 5X CA

SMILES | k3* [1] | k4* [1] | k3* | observed kOV
NCCO [MEA, monoethanolamine] | 0.057 m^6 · mol^−1 · g^−1 · s^−1 | 0.040 m^3 · g^−1 |  | 
CC(O)CN(CC(C)O)CC(C)O (stereo not shown) [TIPA, tri-isopropanolamine] |  |  | 0.028 m^6 · mol^−1 · kg^−1 · s^−1 and 0.036 m^6 · mol^−1 · g^−1 · s^−1 | 110 to 150 s⁻¹
